# Ab-14 light chain CDR variants: yeast mating affinities

Source: Li et al. 2023 (doi:10.1038/s41467-023-39022-2), MIT Lincoln Laboratory and A-Alpha Bio; data file from the FLAb repository.

Binding partner: SARS-CoV-2 spike HR2 peptide, sequence PDVDLGDISGINAS.

The variants keep the heavy chain, the linker and the frameworks of Ab-14 (scFv order VH, the linker GGGGSGGGGSGGGGS, VL).
VH: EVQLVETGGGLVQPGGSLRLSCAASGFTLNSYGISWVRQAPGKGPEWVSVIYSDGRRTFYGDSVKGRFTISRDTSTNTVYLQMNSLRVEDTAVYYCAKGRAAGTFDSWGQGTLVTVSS
VL: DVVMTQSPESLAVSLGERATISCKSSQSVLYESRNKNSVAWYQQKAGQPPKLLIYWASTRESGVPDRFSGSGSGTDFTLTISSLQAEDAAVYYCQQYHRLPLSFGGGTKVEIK

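The parent was found by panning a naive human phage display library on the peptide. This is the validation round: designs drawn from the data on random variants, tested in the same kind of assay. Several design methods are mixed in this list. AlphaSeq pools MATa yeast showing the antibodies with MATalpha yeast showing the peptide. Binding brings cells together so that they mate, and sequencing counts the barcode pairs among the diploids. The ratio of observed to expected reads was calibrated, replicate by replicate, on BCL2-family standards whose Kd was known from biolayer interferometry. There are six technical replicates.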

Each variant is given by its three light chain CDRs, as the data file delimits them; those of the parent are KSSQSVLYESRNKNSVA, WASTRES, QQYHRLPLS. Scale: log10 of Kd in nM, estimated from mating counts; low values are strong binders. The mean shown is taken over the replicates in which the pair was detected. "not detected" means that the variant was in the library but no mating with the target was seen in any replicate; the authors take this as a sign of poor binding, and no number exists. The list is sorted by this average, lowest first, undetected variants last. The authors averaged sequences with at least three values out of six and counted those with two or fewer as poor binders. Background: pairings of all light chain designs with three empty control strains gave a value in 4% of cases (median 2.64, 5th percentile 1.59). Values in that range, when seen in few replicates, are hard to tell from nonspecific mating. For each scFv, signals with the empty controls are counted beside the result. Values of this round are not directly comparable with the first-round values of the same sequences. The parent sequence was in this pool as ten entries: three were never detected, three once, and four in most replicates, with averages from 0.34 to 2.37.

"mean, log10 nM",seen in,control signals,CDR-L1,CDR-L2,CDR-L3
-0.47,6 of 6,1 of 18,KLQQSMLYMDRNANNVA,NASTRES,QQYHRLPLS
-0.43,6 of 6,1 of 18,KLSQSVLYESRNKWSVA,NASQRES,QQYHRLPLS
-0.42,6 of 6,1 of 18,KVQQSMLYESRNHNNVA,AASDRES,QQYHRLPLS
-0.26,6 of 6,0 of 18,KLQMRMLYESRMKNSVA,DASLRES,QQYHRLPLS
-0.26,6 of 6,1 of 18,KLYQSQLYESRNKNSVA,NASTRES,QQYHRLPLS
-0.23,6 of 6,3 of 18,KQSQSVLYEQRNKNSVA,DASTRES,QQYHRLPLS
-0.22,6 of 6,1 of 18,KSSQSWLYESRNKNSVA,GASVREV,QQYHRLPLS
-0.18,6 of 6,1 of 18,SLGPFEQQIMKDLNNIA,NTQVRAT,QQYMRLPFM
-0.16,6 of 6,2 of 18,KLEQSDPYESRNKNSVA,NASTRES,QQYHRLPLS
-0.15,6 of 6,2 of 18,KLSQSVLYESRNKNSVA,NASTRES,QQYHRLPLE
-0.14,6 of 6,1 of 18,KLSQSGLYESRNKNSVA,DASTRES,QQYHRLPLS
-0.10,6 of 6,1 of 18,LVSQQELYEDRNKNSVA,HASQRLL,QQYHRLPLS
-0.04,6 of 6,1 of 18,KVSQSNDYESRNKNSVA,NASTRES,QQYHRLPLS
-0.02,6 of 6,3 of 18,TIGQSTLMESANRNNVA,QMSTREK,QQYDRLPLS
0.00,6 of 6,0 of 18,KLDQSTLYESRNKNSVA,QASTRES,QQYHRLPLS
0.02,6 of 6,1 of 18,KMSQSVLKESRNKNSVA,GASTRES,QQYHRLPLS
0.08,6 of 6,0 of 18,KYSQNVLIMGRNKNNVA,EMTTREE,QQYDRLPLS
0.10,6 of 6,2 of 18,KVSSAFLYEQRNKNSVA,QASQRES,QQYHRLPLS
0.12,6 of 6,1 of 18,KSSISYLYESANTNSVA,EASTRES,QQYHRLPLS
0.27,6 of 6,1 of 18,TISQVMNTMTRHGNNVA,DLTERED,QQYFRLPLS
0.28,6 of 6,1 of 18,KSSQSTLYESGMKNSVA,NASKRMQ,QQYHRLPLS
0.36,6 of 6,0 of 18,KYSQSWLYESRNKNSVA,WASTRES,QQKHVLPLS
0.37,6 of 6,1 of 18,KSSQSVVYESRSKNSVA,QASTRES,QQYHRLPLS
0.44,6 of 6,2 of 18,KSSMCFLYESRNKNSVA,GASTRES,QQYHRLPLS
0.47,6 of 6,1 of 18,KIQQHRLGTEQYLNAIA,NEQVRED,QQYMQLPLI
0.51,6 of 6,2 of 18,KSSKSVEFESRNKNSVA,NASTRES,QQYHRLPLS
0.52,6 of 6,1 of 18,KVSQSVLYESRNKNSVA,DASTRES,QQYHRLPLD
0.54,6 of 6,0 of 18,KLQMRMLYESRWKNSVA,NASLRES,QQYHRLPLS
0.58,6 of 6,0 of 18,HMLYQFETISQRVNNVA,EGATVLD,QQYFRLPIT
0.58,6 of 6,0 of 18,KLSIMYQHTSRNKNNIA,ERSTREA,QQYHHLPLS
0.63,6 of 6,5 of 18,HISQSFMTESVSRNSVA,HQSTREQ,QQYDRLPLS
0.67,6 of 6,1 of 18,HLSWSVLYESRNKNSVA,NASTRES,GQYHRLPLS
0.68,6 of 6,1 of 18,MFSQLTYTGSRTRNAVA,QASTREN,QQYHHLPLT
0.70,6 of 6,0 of 18,QLSGITGHMSMIKNNVA,EMETREN,QQYERLPLS
0.71,6 of 6,1 of 18,ILTGMLNPAGQQQHSIA,HGGIKIE,QQYNRLPLA
0.74,6 of 6,0 of 18,MISQLYNMGTFAINSVA,QASLRNE,QQYDRLPLM
0.78,5 of 6,0 of 18,KLYMSTGYESRNKDNIA,DNSTRGR,QQYHRLPLS
0.86,6 of 6,2 of 18,TISQMFLGESRNRNSVA,QAETRES,QSYDRLPLS
0.87,6 of 6,1 of 18,MISDLMLYGSRASNPIA,NASTREY,QQYHRLPLE
0.93,5 of 6,0 of 18,KSSQSYLIESRNKNSVA,EASTRES,QQYHRLPLS
0.98,1 of 6,0 of 18,KSGQGVLYESRNKFSVA,GASTRES,QQYHRLPLS
0.99,6 of 6,2 of 18,TISQLMNMGSFAISSVA,QASIRNS,QQYDRLPLM
1.24,6 of 6,0 of 18,KYSQSVLYESRNFNSVA,WASTRES,QQYHRLPLS
1.35,6 of 6,0 of 18,KISQMFNVGTKNTNSLA,EMNTRGL,QDYHRLPLS
1.67,3 of 6,0 of 18,KISQMYRYEQQNSSSIA,EANTREK,QSYHRLPLS
1.70,4 of 6,0 of 18,KISQSVLYESRNKNSVA,WASTRES,QQYHRAPIS
1.82,4 of 6,1 of 18,KSSQSWSYESRNKNSVA,WASTRED,QQYHRLPLS
1.89,6 of 6,0 of 18,KSSQSVTMESRNKNSVA,RASTRES,QQYHRLPLS
1.91,6 of 6,1 of 18,HISMLTLQGMRHRNSVA,QMTTREN,QQYDRLPLS
1.95,4 of 6,0 of 18,IVSQLMLWGMHAKNSIA,EASTRIN,QQYERLPLF
2.03,5 of 6,0 of 18,KSSGSVLYEQRNKNSVA,WASTREE,QQYHRLPLS
2.14,5 of 6,0 of 18,TISQSTYWESRNKNSVA,QTETREE,QDYDRLPLS
2.14,3 of 6,0 of 18,KSSLSKLYESRNKNSVA,WASTRES,QQYHRLPLS
2.17,5 of 6,1 of 18,IVSQLMMWGLHAKNSIA,EAETRLN,QQYDRLPLF
2.30,5 of 6,0 of 18,KISQSVLYESRNQNSVA,WASTRLS,QQYHRLPLS
2.32,5 of 6,4 of 18,HLAAMWGLESVKPNNVA,ENSTREQ,QQYDRLPLS
2.47,6 of 6,3 of 18,TLYGLSNSMSINKDSVA,EMTTREE,QQYDRLPLM
2.58,2 of 6,2 of 18,RSSQSVLYESRNKNSVA,RASTRAS,QQYHRLPLS
2.60,2 of 6,0 of 18,KLMNSLDAFKQWEDNIA,ETEHKVA,QQYYHLPLT
not detected,0 of 6,0 of 18,KSSQSVLYESNNKNSVA,WASTRES,YQYHRLPLS
not detected,0 of 6,0 of 18,QLQQVQQGDTISEYSVA,HAEVSGR,QQYSQLPLI
not detected,0 of 6,0 of 18,RLSNHVYDRQGIQNSVA,QDAERAV,QSYDRLPLS

Top 6 of the variants detected in all replicates, tightest first:

{"CDR-L1": "KLQQSMLYMDRNANNVA", "CDR-L2": "NASTRES", "CDR-L3": "QQYHRLPLS", "mean, log10 nM": "-0.47", "seen in": "6 of 6", "control signals": "1 of 18"}
{"CDR-L1": "KLSQSVLYESRNKWSVA", "CDR-L2": "NASQRES", "CDR-L3": "QQYHRLPLS", "mean, log10 nM": "-0.43", "seen in": "6 of 6", "control signals": "1 of 18"}
{"CDR-L1": "KVQQSMLYESRNHNNVA", "CDR-L2": "AASDRES", "CDR-L3": "QQYHRLPLS", "mean, log10 nM": "-0.42", "seen in": "6 of 6", "control signals": "1 of 18"}
{"CDR-L1": "KLQMRMLYESRMKNSVA", "CDR-L2": "DASLRES", "CDR-L3": "QQYHRLPLS", "mean, log10 nM": "-0.26", "seen in": "6 of 6", "control signals": "0 of 18"}
{"CDR-L1": "KLYQSQLYESRNKNSVA", "CDR-L2": "NASTRES", "CDR-L3": "QQYHRLPLS", "mean, log10 nM": "-0.26", "seen in": "6 of 6", "control signals": "1 of 18"}
{"CDR-L1": "KQSQSVLYEQRNKNSVA", "CDR-L2": "DASTRES", "CDR-L3": "QQYHRLPLS", "mean, log10 nM": "-0.23", "seen in": "6 of 6", "control signals": "3 of 18"}